Literature values in US11852634B2, “Use of AKT phosphorylation as a biomarker for prognosing neurodegenerative diseases and treating same” (Yeda Research and Development Co. Ltd., priority 2011, dated 2023).

Tested on: ALS
Details: ALS patients, estimated; cited from earlier work

SMILES: Nc1nc2ccc(OC(F)(F)F)cc2s1 [Riluzole]
- Extension in patient survival: three
